# Assay results reported in patent US9169252B2 (BRISTOL-MYERS SQUIBB COMPANY, priority 2014, dated 2015).
# The chains behind the UniProt entries cited, without tags or fusion partners.
# UniProt Q9NWZ3, whole entry, species assumed: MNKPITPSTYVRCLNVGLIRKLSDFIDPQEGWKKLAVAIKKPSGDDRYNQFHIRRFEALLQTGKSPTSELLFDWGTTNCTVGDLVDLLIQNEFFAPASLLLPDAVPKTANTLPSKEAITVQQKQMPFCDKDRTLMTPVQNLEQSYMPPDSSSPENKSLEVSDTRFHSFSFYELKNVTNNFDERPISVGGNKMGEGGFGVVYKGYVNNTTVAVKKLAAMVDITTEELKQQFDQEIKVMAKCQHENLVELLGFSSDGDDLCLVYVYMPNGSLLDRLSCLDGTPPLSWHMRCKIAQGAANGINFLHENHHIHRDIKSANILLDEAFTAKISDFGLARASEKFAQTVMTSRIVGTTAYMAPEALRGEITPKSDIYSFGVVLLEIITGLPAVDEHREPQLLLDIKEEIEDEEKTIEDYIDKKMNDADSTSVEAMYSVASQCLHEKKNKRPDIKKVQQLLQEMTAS
# Target: IRAK4 (Homo sapiens (Human), UniProt Q9NWZ3)
# Assay: IRAK4 Inhibition Assay
# Assay type: biochemical
# Details: ATP 500 μM; IRAK4 0.6 nM
# Description: The assays were performed in U-bottom 384-well plates. […] The reaction was initiated by the combination of IRAK4 with substrates and test compounds. The reaction mixture was incubated at room temperature for 60 min. and terminated by adding 45 μL of 35 mM EDTA to each sample. The reaction mixture was analyzed on the Caliper LABCHIP® 3000 (Caliper, Hopkinton, Mass.) by electrophoretic separation of the fluorescent substrate and phosphorylated product.
row,Structure (SMILES),IC50 [nM]
1,CC(C)(O)[C@H](F)CNC(=O)c1cnc(-n2ncc3cc(F)cnc32)cc1NC1CCC(O)C1 (mixture of isomers) [Example 611],17.4
2,"CC(C)(O)[C@H](F)CNC(=O)c1cnc(-n2ccc3cc(C#N)cnc32)cc1N[C@@H]1COC[C@H]1F (single isomer, unassigned) [Example 458]",7.1
3,"CC(C)(O)[C@H](F)CNC(=O)c1cnc(-n2ccc3cc(C#N)cnc32)cc1N[C@@H]1COC[C@H]1F (single isomer, unassigned) [Example 459]",4.9
4,"CC(O)CCNc1cc(-n2ncc3cc(C#N)cnc32)ncc1C(=O)NC[C@@H](F)C(C)(C)O (single isomer, unassigned) [Example 572]",9.1
5,"CC(O)CCNc1cc(-n2ncc3cc(C#N)cnc32)ncc1C(=O)NC[C@@H](F)C(C)(C)O (single isomer, unassigned) [Example 573]",8.8
6,"CC(C)(O)[C@H](F)CNC(=O)c1cnc(-n2ncc3cc(F)cnc32)cc1NC1CCC(O)C1 (single isomer, unassigned) [Example 610]",8.9
7,"CC(C)(O)[C@H](F)CNC(=O)c1cnc(-n2ncc3cc(Cl)cnc32)cc1N[C@@H]1C[C@H]1CO (single isomer, unassigned) [Example 646]",10.5
8,COC(C)(C)[C@H](F)CNC(=O)c1cnc(-n2ccc3cc(C#N)cnc32)cc1NC(C)C [Example 434],1.6
9,[2H]C([2H])([2H])OC(C)(C)[C@H](F)CNC(=O)c1cnc(-n2ccc3cc(C#N)cnc32)cc1NC(C)C [Example 442],1.5
10,CC(C)Nc1cc(-n2ccc3cc(C#N)cnc32)ncc1C(=O)NC1CCC(C(C)(O)C2CC2)CC1 (stereo not drawn) [Example 444],4.6
11,CC(C)Nc1cc(-n2ccc3cc(C#N)cnc32)ncc1C(=O)NC1CCC(C(C)(O)C2CC2)CC1 (stereo not drawn) [Example 446],3.9
12,CC(C)Nc1cc(-n2ccc3cc(CNC(=O)CC(C)(C)O)cnc32)ncc1C(=O)NC[C@@H](F)C(C)(C)O [Example 499],6.1
13,"CC(C)(O)[C@H](F)CNC(=O)c1cnc(-n2ncc3cc(C#N)cnc32)cc1N[C@H]1CCOC1 [Example 545, 6-(5-Cyano-1H-pyrazolo[3,4-b]pyridin-1-yl)-N—((R)-2-fluoro-3-hydroxy-3-methylbutyl)-4-(((S)-tetrahydrofuran-3-yl)amino)nicotinamide, TFA salt]",8.7
14,CC(C)(O)[C@H](F)CNC(=O)c1cnc(-n2ncc3cc(C#N)cnc32)cc1N[C@@H]1CCOC1 [Example 548],10.6
15,CCCNc1cc(-n2ncc3cc(C#N)cnc32)ncc1C(=O)NC[C@@H](F)C(C)(C)O [Example 592],2.8
16,CC(F)CCNc1cc(-n2ncc3cc(C#N)cnc32)ncc1C(=O)NC[C@@H](F)C(C)(C)O (stereo partly drawn) [Example 604],6.1
17,CC(C)(O)[C@H](F)CNC(=O)c1cnc(-n2ncc3cc(C#N)cnc32)cc1NC1CCC(F)C1 (stereo partly drawn) [Example 626],1.1

# Same assay, conditions: IRAK4 Inhibition Assay; ATP 500 μM
row,Structure (SMILES),IC50 [nM]
1,"CC(C)(O)[C@H](F)CNC(=O)c1cnc(-n2ccc3cc(C#N)cnc32)cc1NC1CCC(O)C1 (single isomer, unassigned) [Example 24]",1.4
2,"CC(C)(O)[C@H](F)CNC(=O)c1cnc(-n2ccc3cc(C#N)cnc32)cc1NC1CCC(O)C1 (single isomer, unassigned) [Example 25]",1.5
3,"CC(C)(O)[C@H](F)CNC(=O)c1cnc(-n2ccc3cc(C#N)cnc32)cc1NC1CCC(O)C1 (single isomer, unassigned) [Example 26]",2.5
4,"CC(C)(O)[C@H](F)CNC(=O)c1cnc(-n2ccc3cc(C#N)cnc32)cc1NC1CCC(O)C1 (single isomer, unassigned) [Example 27]",1.6
5,"CC(C)Nc1cc(-n2ccc3cc(C#N)cnc32)ncc1C(=O)NC[C@@H](F)C(C)O (single isomer, unassigned) [Example 48]",1.4
6,"CC(C)Nc1cc(-n2ccc3cc(C#N)cnc32)ncc1C(=O)NC[C@@H](F)C(C)O (single isomer, unassigned) [Example 49]",3.2
7,"CNC(=O)[C@H]1CC[C@H](NC(=O)c2cnc(-n3ccc4cc(C#N)cnc43)cc2NC2CCOCC2)CC1 [Example 86, 6-(5-cyano-1H-pyrrolo[2,3-b]pyridin-1-yl)-N-((trans)-4-(methylcarbamoyl)cyclohexyl)-4-((tetrahydro-2H-pyran-4-yl)amino)nicotinamide]",7.1
8,"CC(C)Nc1cc(-n2ccc3cc(C#N)cnc32)ncc1C(=O)N[C@H]1CC[C@H]([N+](=O)[O-])CC1 [Example 95, 6-(5-cyano-1H-pyrrolo[2,3-b]pyridin-1-yl)-4-(isopropylamino)-N-((trans)-4-nitrocyclohexyl)nicotinamide]",5.1
9,"CC(C)(O)[C@H](F)CNC(=O)c1cnc(-n2ncc3cncnc32)cc1NC1CC1 [Example 134, (R)-4-(cyclopropylamino)-N-(2-fluoro-3-hydroxy-3-methylbutyl)-6-(1H-pyrazolo[3,4-d]pyrimidin-1-yl)nicotinamide]",6.9
10,CC(C)Nc1cc(-n2ncc3cc(C#N)cnc32)ncc1C(=O)NCC1CCS(=O)(=O)C1 (stereo not drawn) [Example 209],15.3
11,CC(C)Nc1cc(-n2ncc3cc(C#N)cnc32)ncc1C(=O)N[C@H]1CC[C@H](NC(=O)[C@H](C)O)CC1 [Example 274],6.2
12,CC(C)Nc1cc(-n2ncc3cc(Cl)c(N)nc32)ncc1C(=O)NC[C@@H](F)C(C)(C)O [Example 282],4.1
13,CC(Nc1cc(-n2ncc3cc(C#N)cnc32)ncc1C(=O)NC[C@@H](F)C(C)(C)O)C(F)(F)F (stereo partly drawn) [Example 297],4.1

# Where a name gives a salt, the structure may show the parent alone.
